# From BindingDB's records for doi:10.3109/14756366.2011.649268 (Università degli Studi di Firenze, 2013)
# Target: T1, Carbonic anhydrase (Helicobacter pylori, UniProt Q08IJ2)
# T1 sequence (Q08IJ2 whole entry): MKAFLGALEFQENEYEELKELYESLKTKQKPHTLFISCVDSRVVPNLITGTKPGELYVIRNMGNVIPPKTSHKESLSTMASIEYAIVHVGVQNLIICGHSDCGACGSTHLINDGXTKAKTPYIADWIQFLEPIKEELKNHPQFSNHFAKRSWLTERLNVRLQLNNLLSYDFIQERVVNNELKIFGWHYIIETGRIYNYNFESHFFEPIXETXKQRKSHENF
# Assay: An Applied Photophysics stopped-flow instrument has been used for assaying the CA catalysed CO2 hydration activity Khalifah RG. The carbon dioxide hydration activity of carbonic anhydrase. I. Stop-flow kinetic studies on the native human isoenzymes B and C. […] The CO2 concentrations ranged from 1.7 to 17 mM for the determination of the kinetic parameters and inhibition constants. […] The uncatalyzed rates were determined in the same manner and subtracted from the total observed rates. Stock solutions of inhibitor (10 mM) were prepared in distilled-deionized water and dilutions up to 0.01 nM were done thereafter with distilled-deionized water. Inhibitor and enzyme solutions were preincubated together for 15 min at room temperature prior to assay, in order to allow for the formation of the E-I complex.
# Details: pH 7.5; 25 °C
row,Compound,Ki
1,O=C(O)O [CO3(2-)],420 µM
2,[O]=[Re](=[O])(=[O])[OH],820 µM
